# In US9056111B1, “Selective efflux inhibitors and related pharmaceutical compositions and methods of treatment” (STC.UNM, priority 2011, dated 2015):
# Amino acid sequences for entries named in this document (tags omitted).
# UniProt P08183, whole entry: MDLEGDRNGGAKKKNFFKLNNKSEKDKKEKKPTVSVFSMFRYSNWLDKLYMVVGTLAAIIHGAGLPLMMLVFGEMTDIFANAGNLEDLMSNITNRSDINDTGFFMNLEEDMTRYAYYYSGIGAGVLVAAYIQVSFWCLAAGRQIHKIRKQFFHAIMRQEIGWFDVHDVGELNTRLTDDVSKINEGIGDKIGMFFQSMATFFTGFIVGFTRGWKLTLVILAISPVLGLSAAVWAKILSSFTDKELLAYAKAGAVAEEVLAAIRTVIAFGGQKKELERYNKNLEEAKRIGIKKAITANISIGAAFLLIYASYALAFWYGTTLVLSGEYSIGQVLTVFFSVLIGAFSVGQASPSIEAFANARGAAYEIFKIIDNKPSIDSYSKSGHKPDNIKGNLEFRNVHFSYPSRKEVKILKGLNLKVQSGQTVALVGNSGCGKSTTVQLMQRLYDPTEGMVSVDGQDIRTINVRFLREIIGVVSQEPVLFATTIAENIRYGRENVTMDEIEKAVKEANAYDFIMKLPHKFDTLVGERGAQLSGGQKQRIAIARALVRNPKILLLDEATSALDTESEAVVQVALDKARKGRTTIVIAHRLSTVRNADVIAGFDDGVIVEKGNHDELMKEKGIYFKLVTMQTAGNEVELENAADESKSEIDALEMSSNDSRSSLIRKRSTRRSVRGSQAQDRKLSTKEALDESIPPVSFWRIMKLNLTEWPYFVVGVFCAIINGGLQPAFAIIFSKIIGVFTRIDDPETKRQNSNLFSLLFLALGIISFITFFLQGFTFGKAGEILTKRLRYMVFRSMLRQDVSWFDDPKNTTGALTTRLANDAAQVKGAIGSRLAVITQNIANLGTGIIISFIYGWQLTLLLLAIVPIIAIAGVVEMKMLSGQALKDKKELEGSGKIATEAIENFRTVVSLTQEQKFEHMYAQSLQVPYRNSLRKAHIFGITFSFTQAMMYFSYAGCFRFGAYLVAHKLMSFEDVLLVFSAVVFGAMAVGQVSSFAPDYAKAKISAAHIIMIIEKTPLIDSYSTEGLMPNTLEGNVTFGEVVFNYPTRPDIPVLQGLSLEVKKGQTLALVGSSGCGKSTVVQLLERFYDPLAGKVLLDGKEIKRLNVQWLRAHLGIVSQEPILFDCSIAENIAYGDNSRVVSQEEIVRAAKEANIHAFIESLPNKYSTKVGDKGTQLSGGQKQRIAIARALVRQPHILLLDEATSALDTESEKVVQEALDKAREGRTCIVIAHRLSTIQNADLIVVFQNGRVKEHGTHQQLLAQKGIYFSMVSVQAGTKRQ
# Target: ABCB1 (Homo sapiens, UniProt P08183)
# Method: The HyperCyt® high throughput flow cytometry platform (IntelliCyt™, Albuquerque, N. Mex.) was used to sequentially sample cells from 384-well microplates (2 μL/sample) for flow cytometer presentation at a rate of 40 samples per minute.^62-63 Flow cytometric analysis was performed on a CyAn™ flow cytometer (Beckman-Coulter, Fullerton, Calif.). The resulting time-gated data files were analyzed with HyperView® software to determine compound activity in each well. Inhibition response curves were fitted by Prism® software (GraphPad Software, Inc., San Diego, Calif.) using nonlinear least-squares regression in a sigmoidal dose response model with variable slope, also known as the four-parameter logistic equation. This type of time-gated flow cytometric data analysis was described in detail for a previous ABC transporter screen from our group.^56
# The assay provider's ABCB1 over-expressing Jurkat-DNR cell line is used for confirmatory follow up instead of the CCRF-Adr cells. Each cell line (Jurkat-DNR and Ig-MXP3) is run separately against all compounds (no differential cell staining) in dose response. […] The plate is rotated end-over-end at 4 RPM and 25° C. for 30 minutes and then cell samples are analyzed and flow cytometric data of light scatter and fluorescence emission at 530+/−20 nm (488 nm excitation, FL1) are collected. […]
smiles,measurement,value
"COc1ccc2c3c([nH]c2c1)[C@H](CC(C)C)N1C(=O)[C@H](CCC(=O)OC(C)(C)C)NC(=O)[C@@H]1C3 [Compound 4, reference compound]",IC50,> 50 µM
same,efflux inhibition activity ABCB1,no activity
